Values quoted from earlier work in patent publication US20210316003A1 (Immunomedics, Inc., priority 2020, published 2021).
Where two headings read alike, the source gives them in different places.

Tested on: patients with metastatic colorectal cancer (mCRC)
Conditions: cited from earlier work

Question: Which Overall survival (RAS/BRAF mutations in ctDNA) does the source give for cetuximab: anti-EGFR antibody here?
Answer: 3.1 months

Question: And the Progression-free survival (RAS/BRAF mutations in ctDNA)?
Answer: 1.8 months

Question: And the Overall survival (without mutations)?
Answer: 9.4 months

Question: What about the Progression-free survival (without mutations) of the same substance?
Answer: 4.9 months
